Test results: patent US20210040193A1 (BEIJING HANMI PHARMACEUTICAL, published 2021)

By UniProt entry, the sequences of proteins in these tests, tags left out. Chains listed by the source or under a name are the forms on record and can include a tag or linker.
UniProt P15692, other isoform, or with tags, fused parts or gaps limits assumed: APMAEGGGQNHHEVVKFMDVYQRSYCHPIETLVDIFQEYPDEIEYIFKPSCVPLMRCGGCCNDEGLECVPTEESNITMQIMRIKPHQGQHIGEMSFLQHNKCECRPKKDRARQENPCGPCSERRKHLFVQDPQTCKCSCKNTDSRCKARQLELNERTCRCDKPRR

Key:
[1] = target: T1, human VEGF (Beijing Sino Biological Inc., Catalog No. 11066-HNAH) (human, UniProt P15692-4 27-191); assay: ELISA, human VEGF coated on the plate, anti-human IgG-HRP detection; control
T1 construct: Bought recombinant protein; also called Recombinant human VEGF

[2] = target: T1, human VEGF (Beijing Sino Biological …); assay: ELISA, human VEGF coated on the plate, anti-human IgG-HRP detection

Binder	binding result [1]	binding result [2]
VEGF (G631) monoclonal antibody (antibody, V domains shown, Control monoclonal antibody; Variable regions derived from US20060280747; also called anti-human VEGF antibody VEGF (G631)) VH: EVQLVESGGGLVQPGGSLRLSCAASGFTISDYWIHWVRQAPGKGLEWVAGITPAGGYTYYADSVKGRFTISADTSKNTAYLQMNSLRAEDTAVYYCARFVFFLPYAMDYWGQGTLVTVSS VL: DIQMTQSPSSLSASVGDRVTITCRASQDVSTAVAWYQQKPGKAPKLLIYSASFLYSGVPSRFSGSGSGTDFTLTISSLQPEDFATYYCQQGYGNPFTFGQGTKVEIK	binds	
anti-PD-1 (Pembro)/VEGF (G631) heterodimeric antibody (bispecific antibody, human IgG1, kappa, N297A, Heterodimer of two half antibodies; it is not spelled out for this molecule; also called anti-PD-1 (Pembro)/VEGF (G631) heterodimer antibody) heavy 1: QVQLVQSGVEVKKPGASVKVSCKASGYTFTNYYMYWVRQAPGQGLEWMGGINPSNGGTNFNEKFKNRVTLTTDSSTTTAYMELKSLQFDDTAVYYCARRDYRFDMGFDYWGQGTTVTVSSASTKGPSVFPLAPSSKSTSGGTAALGCLVKDYFPEPVTVSWNSGALTSGVHTFPAVLQSSGLYSLSSVVTVPSSSLGTQTYICNVNHKPSNTKVDKKVEPKSCDKTHTCPPCPAPELLGGPSVFLFPPKPKDTLMISRTPEVTCVVVDVSHEDPEVKFNWYVDGVEVHNAKTKPREEQYASTYRVVSVLTVLHQDWLNGKEYKCKVSNKALPAPIEKTISKAKGQPREPQVYTLPPSRDELTKNQVSLLCLVKGFYPSDIAVEWESNGQPENNYKTTPPVLRSDGSFFLYSKLTVDKSRWQQGNVFSCSVMHEALHNHYTQKSLSLSPGK light 1: EIVLTQSPATLSLSPGERATLSCRASKGVSTSGYSYLHWYQQKPGQAPRLLIYLASYLESGVPARFSGSGSGTDFTLTISSLEPEDFAVYYCQHSRDLPLTFGGGTKVEIKRTVAAPSVFIFPPSDEQLKSGTASVVCLLNNFYPREAKVQWKVDNALQSGNSQESVTEQDSKDSTYSLSSTLTLSKADYEKHKVYACEVTHQGLSSPVTKSFNRGEC heavy 2: EVQLVESGGGLVQPGGSLRLSCAASGFTISDYWIHWVRQAPGKGLEWVAGITPAGGYTYYADSVKGRFTISADTSKNTAYLQMNSLRAEDTAVYYCARFVFFLPYAMDYWGQGTLVTVSSASTKGPSVFPLAPSSKSTSGGTAALGCLVKDYFPEPVTVSWNSGALTSGVHTFPAVLQSSGLYSLSSVVTVPSSSLGTQTYICNVNHKPSNTKVDKKVEPKSCDKTHTCPPCPAPELLGGPSVFLFPPKPKDTLMISRTPEVTCVVVDVSHEDPEVKFNWYVDGVEVHNAKTKPREEQYASTYRVVSVLTVLHQDWLNGKEYKCKVSNKALPAPIEKTISKAKGQPREPQVYTEPPSRDELTKNQVSLTCLVKGFYPSDIAVEWESNGQPENNYKTTPPVLDSDGSFFLLSVLTVDKSRWQQGNVFSCSVMHEALHNHYTQKSLSLSPGK light 2: not shown		binds
anti-PD-1 (BJHM)/VEGF (G631) heterodimeric antibody (bispecific antibody, human IgG1, kappa, N297A) heavy 1: EVNLVESGGGLVQPGGSLRLSCAASGFTFSSYGMSWVRQAPGKGLEWVASISGGGRYTYYPDSMKGRFTISRDNSKNNLYLQMNSLRAEDTAVYYCVYEYFYTMDYWGQGTLVTVSSASTKGPSVFPLAPSSKSTSGGTAALGCLVKDYFPEPVTVSWNSGALTSGVHTFPAVLQSSGLYSLSSVVTVPSSSLGTQTYICNVNHKPSNTKVDKKVEPKSCDKTHTCPPCPAPELLGGPSVFLFPPKPKDTLMISRTPEVTCVVVDVSHEDPEVKFNWYVDGVEVHNAKTKPREEQYASTYRVVSVLTVLHQDWLNGKEYKCKVSNKALPAPIEKTISKAKGQPREPQVYTLPPSRDELTKNQVSLLCLVKGFYPSDIAVEWESNGQPENNYKTTPPVLRSDGSFFLYSKLTVDKSRWQQGNVFSCSVMHEALHNHYTQKSLSLSPGK light 1: DIVLTQSPATLSLSPGERATLSCRASQSISNNLHWYQQKPGQAPRLLIRFASQSISGIPARFSGSGSGTDFTLTISSLEPEDFAVYFCQQSDNWPLTFGGGTKVEIKRTVAAPSVFIFPPSDEQLKSGTASVVCLLNNFYPREAKVQWKVDNALQSGNSQESVTEQDSKDSTYSLSSTLTLSKADYEKHKVYACEVTHQGLSSPVTKSFNRGEC heavy 2: EVQLVESGGGLVQPGGSLRLSCAASGFTISDYWIHWVRQAPGKGLEWVAGITPAGGYTYYADSVKGRFTISADTSKNTAYLQMNSLRAEDTAVYYCARFVFFLPYAMDYWGQGTLVTVSSASTKGPSVFPLAPSSKSTSGGTAALGCLVKDYFPEPVTVSWNSGALTSGVHTFPAVLQSSGLYSLSSVVTVPSSSLGTQTYICNVNHKPSNTKVDKKVEPKSCDKTHTCPPCPAPELLGGPSVFLFPPKPKDTLMISRTPEVTCVVVDVSHEDPEVKFNWYVDGVEVHNAKTKPREEQYASTYRVVSVLTVLHQDWLNGKEYKCKVSNKALPAPIEKTISKAKGQPREPQVYTEPPSRDELTKNQVSLTCLVKGFYPSDIAVEWESNGQPENNYKTTPPVLDSDGSFFLLSVLTVDKSRWQQGNVFSCSVMHEALHNHYTQKSLSLSPGK light 2: not shown		binds
anti PD-1(BJHM)/VEGF(Bevaci) heterodimeric antibody (bispecific antibody, human IgG1, kappa, N297A) heavy 1: EVNLVESGGGLVQPGGSLRLSCAASGFTFSSYGMSWVRQAPGKGLEWVASISGGGRYTYYPDSMKGRFTISRDNSKNNLYLQMNSLRAEDTAVYYCVYEYFYTMDYWGQGTLVTVSSASTKGPSVFPLAPSSKSTSGGTAALGCLVKDYFPEPVTVSWNSGALTSGVHTFPAVLQSSGLYSLSSVVTVPSSSLGTQTYICNVNHKPSNTKVDKKVEPKSCDKTHTCPPCPAPELLGGPSVFLFPPKPKDTLMISRTPEVTCVVVDVSHEDPEVKFNWYVDGVEVHNAKTKPREEQYASTYRVVSVLTVLHQDWLNGKEYKCKVSNKALPAPIEKTISKAKGQPREPQVYTLPPSRDELTKNQVSLLCLVKGFYPSDIAVEWESNGQPENNYKTTPPVLRSDGSFFLYSKLTVDKSRWQQGNVFSCSVMHEALHNHYTQKSLSLSPGK light 1: DIVLTQSPATLSLSPGERATLSCRASQSISNNLHWYQQKPGQAPRLLIRFASQSISGIPARFSGSGSGTDFTLTISSLEPEDFAVYFCQQSDNWPLTFGGGTKVEIKRTVAAPSVFIFPPSDEQLKSGTASVVCLLNNFYPREAKVQWKVDNALQSGNSQESVTEQDSKDSTYSLSSTLTLSKADYEKHKVYACEVTHQGLSSPVTKSFNRGEC heavy 2: EVQLVESGGGLVQPGGSLRLSCAASGYTFTNYGMNWVRQAPGKGLEWVGWINTYTGEPTYAADFKRRFTFSLDTSKSTAYLQMNSLRAEDTAVYYCAKYPHYYGSSHWYFDVWGQGTLVTVSSASTKGPSVFPLAPSSKSTSGGTAALGCLVKDYFPEPVTVSWNSGALTSGVHTFPAVLQSSGLYSLSSVVTVPSSSLGTQTYICNVNHKPSNTKVDKKVEPKSCDKTHTCPPCPAPELLGGPSVFLFPPKPKDTLMISRTPEVTCVVVDVSHEDPEVKFNWYVDGVEVHNAKTKPREEQYASTYRVVSVLTVLHQDWLNGKEYKCKVSNKALPAPIEKTISKAKGQPREPQVYTEPPSRDELTKNQVSLTCLVKGFYPSDIAVEWESNGQPENNYKTTPPVLDSDGSFFLLSVLTVDKSRWQQGNVFSCSVMHEALHNHYTQKSLSLSPGK light 2: not shown		binds
